# AlphaSeq binding of Ab-14 heavy chain variants to a spike HR2 peptide

The target is the same throughout: PDVDLGDISGINAS, from the HR2 region of SARS-CoV-2 spike.

Ab-14 is the parent antibody, in scFv form: VH, then a (GGGGS)3 linker, then VL. The light chain is unchanged in all variants.
VH: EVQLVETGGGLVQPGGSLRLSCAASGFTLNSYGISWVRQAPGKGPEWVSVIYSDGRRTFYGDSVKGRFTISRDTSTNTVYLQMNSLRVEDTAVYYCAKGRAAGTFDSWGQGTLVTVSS
VL: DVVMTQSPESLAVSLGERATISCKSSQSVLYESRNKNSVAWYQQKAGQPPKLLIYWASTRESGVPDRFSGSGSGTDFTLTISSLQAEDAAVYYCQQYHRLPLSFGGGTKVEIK

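The variants were designed computationally from a first round of random CDR variants and then made and measured. Their group label is 14H_En_Gibbs (En: ensemble of fine-tuned language models; Gibbs: Gibbs sampling). The assay is AlphaSeq: two haploid yeast populations carry antibody and antigen on their surface. The frequency of each diploid, read from paired DNA barcodes, reflects how well the two displayed proteins bind. The ratio of observed to expected reads was calibrated, replicate by replicate, on BCL2-family standards whose Kd was known from biolayer interferometry. Mating was done six times.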

Variants are written as CDR1, CDR2 and CDR3 of the heavy chain (limits as in the source). Parent: GFTLNSYGIS, VIYSDGRRTFYGDSVK, GRAAGTFDS. Scale: log10 of Kd in nM, estimated from mating counts; low values are strong binders. A mean of the replicates is given; it leaves out those without a signal. A pair that was not seen in that replicate is written "ND"; this usually means weak binding, but a binder can also be missed. Values of this round are not directly comparable with the first-round values of the same sequences.

GDDLEEYGIS, VIYADGMRTYYSDQVK, GNVNGTFFD: ND, ND, ND, ND, ND, ND (controls 0 of 18).
GEDLEEYGIS, VIYADGMRQYYANSVK, GDINDFDDL: ND, ND, ND, ND, ND, ND (controls 1 of 18).
GKGLDEYGIS, VIYADGVRKAYAQSVK, GQVGFFVRV: ND, ND, ND, ND, ND, ND (controls 0 of 18).
GFDIQEYGIS, VIYADGIRSAYIDNVK, GDTGSQFFE: ND, ND, ND, ND, ND, ND (controls 0 of 18).
GFDLDKYGIS, VIYADGMRKSYADAVK, GRLSGTFYI: ND, -0.64, ND, -0.87, ND, 0.01 (mean -0.50; controls 0 of 18).
GEQLDEYGIS, VIYADGRRTAYSQSVK, GLNGGIIDV: ND, ND, ND, ND, ND, ND (controls 0 of 18).
GFDIEEYGIS, VIYADGRRVSYSNKVK, GQNGMIGNY: ND, ND, ND, ND, ND, ND (controls 1 of 18).
GFEIDEYGIS, VIYADGLRYHYANSVK, GEMAGTFTT: ND, 1.83, ND, 1.27, 2.73, ND (mean 1.94; controls 0 of 18).
GFELQEFGIS, VIYADGIRTNYSQNVK, GTLAGTFTQ: ND, ND, ND, ND, 1.80, 1.72 (mean 1.76; controls 0 of 18).
GQQLDQYGIS, VIYADGVRTSYTNDVK, GEHAGTFMQ: ND, ND, ND, ND, 2.86, ND (controls 1 of 18).
GSSLDEYGIS, VIYADGQRVQYADPVK, GIQAGNVDV: ND, ND, ND, ND, ND, ND (controls 0 of 18).
GFALNEYGIS, VIYADGKRQVYANKVK, GNQTGTFDI: ND, ND, ND, ND, ND, ND (controls 0 of 18).
GESLDEFGIS, VIYADGMRTAYTDKVK, GLVAATFVD: ND, ND, ND, ND, ND, ND (controls 2 of 18).
GKSIDEYGIS, VIYADGMRKEYTDSVK, GQFDDAMDL: ND, ND, ND, ND, ND, ND (controls 0 of 18).
GFDINDYGIS, VIYADGLRTSYSTNFK, GIIAGTFTS: 0.25, -0.22, -0.35, -0.10, -0.15, -0.34 (mean -0.15; controls 0 of 18).
GFNLGEYGIS, VIYADGRRTFYKDSVK, GHFIVSGVD: ND, ND, ND, ND, ND, ND (controls 0 of 18).
GFNLDEYGIS, VIYADGKRSMYADKVK, GVVGDFMMD: ND, ND, ND, ND, ND, ND (controls 0 of 18).
GMNLDEYGIS, VIYADGVRCEYANTVK, GELAGFFML: 1.13, 1.18, 0.91, 0.87, 0.70, 1.72 (mean 1.08; controls 0 of 18).
GDDLEDYGIS, VIYADGRRTAYQESVK, GLYAGAIDV: ND, ND, ND, ND, ND, ND (controls 1 of 18).
GQDINEYGIS, VIYADGLRKAYSQQVK, GQNLGDVKD: ND, ND, ND, ND, ND, ND (controls 0 of 18).
GFDLEEYGIS, VIYADGQREAYTENVK, GNSMGMDML: ND, ND, ND, ND, ND, ND (controls 0 of 18).
GFDINEYGIS, VIYADGMRTAYDNSVK, GQMAGFFIN: ND, ND, ND, ND, ND, ND (controls 0 of 18).
GDGLEEYGIS, VIYADGMRESYVNDVK, GQKSGIFNL: ND, ND, ND, ND, ND, ND (controls 0 of 18).
GFDLDEQGIS, VIYADGVRCSYADKVK, GAGSGVIDV: ND, ND, ND, ND, ND, ND (controls 0 of 18).
GFNLDEYGVS, VIYADGKRTQYTNNFK, GENAGFFML: ND, ND, ND, ND, ND, ND (controls 0 of 18).
GFSLDEQGIS, VIYADGIRQSYAQKVK, GQYGGDFIE: ND, ND, ND, ND, ND, ND (controls 0 of 18).
GFQLNEYGIS, VIYADGTRTAYADSVK, GAYDLVAVL: ND, ND, 1.67, ND, ND, ND (controls 0 of 18).
GMKLQDYGIS, VIYADGVRTAFKESVK, GQIAGTFNF: ND, ND, ND, 1.06, ND, 2.44 (mean 1.75; controls 0 of 18).
GFDLNEYGIS, VIYADGKRMAYANKVK, GLMAGTVID: ND, ND, ND, ND, ND, ND (controls 0 of 18).
GFTLDEYGIS, VIYADGMRTQYADQVK, GLLVATVMT: ND, ND, ND, ND, ND, ND (controls 0 of 18).
GKKLDEYGIS, VIYADGKRNFYSNSVK, GGMATGLFV: ND, ND, ND, ND, ND, ND (controls 0 of 18).
GFDVDEQGIS, VIYADGRRSQYANSVK, GANGGMFFM: ND, ND, ND, ND, ND, ND (controls 0 of 18).
GFGLDEFGIS, VIYADGQRTAYANSFK, GVNSNAYDT: ND, ND, ND, ND, ND, ND (controls 0 of 18).
GFNLDEYGIS, VIYADGFRAAYKDKVK, GDDILLGWD: ND, ND, ND, ND, ND, ND (controls 0 of 18).
GEDLDEYGVS, VIYADGRKQSYSNAVK, GAIAGNFDA: ND, ND, ND, ND, ND, ND (controls 1 of 18).
GFDLNEYGVS, VIYADGHRVQYTEDVK, GGNSGAVDM: ND, ND, ND, ND, 2.16, ND (controls 0 of 18).
GFDLDQYGIS, VIYADGKRVAYTADVK, GVQGGNALV: ND, ND, ND, ND, ND, ND (controls 0 of 18).
GFDLNEYGVS, VIYADGHRTQYSDNVK, GSESASIQN: ND, ND, ND, ND, ND, ND (controls 1 of 18).
GFDLQEYGIS, VIYADGLRSMVTNSVK, GNSGGMVLV: ND, ND, ND, ND, ND, ND (controls 0 of 18).
GNGLQEYGIS, VIYADGLRSMYANSVK, GQLDGMVLV: ND, ND, ND, ND, ND, ND (controls 0 of 18).
GFDLAEYGVS, VIYADGKRTHYADHVK, GVNLGFFDT: ND, ND, ND, ND, 2.62, ND (controls 1 of 18).
GFNLDEYGVS, VIYADGVRTAYVSKVK, GQEGWVLLM: ND, ND, ND, ND, ND, ND (controls 0 of 18).
GEVLDEYGIS, VIYADGSRVQYTDAVK, GHLTGAFDM: ND, ND, ND, ND, ND, ND (controls 1 of 18).
GIDLEKYGIS, VIYADGMRASYADAVK, GRLSGTFYI: ND, ND, ND, ND, ND, ND (controls 0 of 18).
GFDLEEYGIS, VIYADGMRQYAIDNVK, GEISGKGKT: ND, ND, ND, ND, ND, ND (controls 0 of 18).
GFKLDEYGIS, VIYADGLRMHYANSVK, GEVAGTFTT: 1.39, 0.73, 0.71, 1.39, 0.61, -0.01 (mean 0.80; controls 0 of 18).
GNSLDEYGIS, VIYADGKRTAYTDAVK, DVGSNTLVD: ND, ND, ND, ND, 2.19, ND (controls 0 of 18).
GFSLEEYGIS, VIYADGSRTSYQESVK, GLYIGMLDM: ND, ND, ND, ND, ND, ND (controls 1 of 18).
GADIQEYGIS, VIYADGIRTAYANNVK, GKYGSQFDE: 1.41, ND, 1.34, 0.16, 0.94, 1.13 (mean 0.99; controls 0 of 18).
GYDLDDYGIS, VIYADGKRTSYAESVK, GLIGGSLSN: ND, ND, ND, ND, ND, ND (controls 0 of 18).

Picked from the list: the 3 lowest averages where every replicate gave a value.

For GFDINDYGIS, VIYADGLRTSYSTNFK, GIIAGTFTS, the assay gave 0.25, -0.22, -0.35, -0.10, -0.15, -0.34 (mean -0.15; controls 0 of 18).
For GFKLDEYGIS, VIYADGLRMHYANSVK, GEVAGTFTT, the assay gave 1.39, 0.73, 0.71, 1.39, 0.61, -0.01 (mean 0.80; controls 0 of 18).
For GMNLDEYGIS, VIYADGVRCEYANTVK, GELAGFFML, the assay gave 1.13, 1.18, 0.91, 0.87, 0.70, 1.72 (mean 1.08; controls 0 of 18).

The authors' rule: three or more of the six replicates give a measured affinity, fewer mean a poor binder. Background: pairings of all heavy chain designs with three empty control strains gave a value in 1% of cases (median 2.08, 5th percentile 0.84). Values in that range, when seen in few replicates, are hard to tell from nonspecific mating. For each scFv, signals with the empty controls are counted beside the result. Of ten entries with the parent sequence, four were seen in most replicates (averages 0.34 to 2.37), three in one and three in none, so single entries are noisy.

Data: MIT Lincoln Laboratory AlphaSeq set, Li et al. 2023, doi:10.1038/s41467-023-39022-2, as distributed in FLAb.